# Organism: Mus musculus
# Experiment: Protective index, ratio of TD50 for albino CF1 mouse by rotarod test to ED50 for albino CF1 mouse by maximal electroshock seizures test
# Type: functional
# In short: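 Mouse protective index calculated as rotorod TD50 divided by MES ED50, both from ip dosing of male CF-1 mice at the NINDS ASP.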
structure (smiles),measurement,value
O=C1NC(=O)C(c2ccccc2)(c2ccccc2)N1 [PHENYTOIN],PI,2.8

# Reference: ChEMBL document CHEMBL1833821, “Defining the structural parameters that confer anticonvulsant activity by the site-by-site modification of (R)-N'-benzyl 2-amino-3-methylbutanamide” (J Med Chem, 2011)
